According to publication PMC10477481 (The Journal of Biological Chemistry, 2023):

Target: neuropilin 1 isoform b, recombinant, C-terminal His tag (Sino Biological 10011-H08H) (human) (UniProt O14786)
Test: flow cytometry of protein-coated microbeads (Ig-coated bead test)

vascular endothelial growth factor A165, His-tagged, dimer form (ligand)
IC50: 0.41 µM
